{"sequences": {"note": "Chains of the proteins cited; added tags and fusions are not shown.", "UniProt P31652, whole entry": "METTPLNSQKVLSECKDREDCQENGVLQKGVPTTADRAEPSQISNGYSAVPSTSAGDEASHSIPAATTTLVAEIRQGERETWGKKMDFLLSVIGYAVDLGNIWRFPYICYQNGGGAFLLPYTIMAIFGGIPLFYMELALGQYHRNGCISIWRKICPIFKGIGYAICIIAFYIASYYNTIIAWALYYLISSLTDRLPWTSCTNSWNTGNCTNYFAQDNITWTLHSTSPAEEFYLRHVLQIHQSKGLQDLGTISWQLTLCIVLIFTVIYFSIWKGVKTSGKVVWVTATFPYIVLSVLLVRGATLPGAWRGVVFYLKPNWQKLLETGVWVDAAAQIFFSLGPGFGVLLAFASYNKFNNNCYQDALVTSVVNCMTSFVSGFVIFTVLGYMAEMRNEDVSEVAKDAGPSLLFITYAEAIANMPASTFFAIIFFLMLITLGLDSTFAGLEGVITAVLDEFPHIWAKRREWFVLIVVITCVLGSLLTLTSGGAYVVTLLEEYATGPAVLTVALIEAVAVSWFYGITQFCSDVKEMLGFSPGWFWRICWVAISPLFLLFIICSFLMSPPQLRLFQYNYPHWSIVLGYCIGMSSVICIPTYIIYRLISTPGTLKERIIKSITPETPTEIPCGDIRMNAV"}, "source": "ChEMBL document CHEMBL1125816", "about": "“[123I]-2 beta-carbomethoxy-3 beta-(4-iodophenyl)tropane: high-affinity SPECT radiotracer of monoamine reuptake sites in brain” (J Med Chem, 1991)", "target": "Sodium-dependent serotonin transporter (Rattus norvegicus, UniProt P31652)", "assay": "Compound was tested for binding affinity to Serotonin transporter sites in homogenates prepared from rat cortical membranes using [3H]paroxetine as radioligand"}
{"smiles": "COC(=O)[C@H]1[C@@H](OC(=O)c2ccccc2)C[C@@H]2CC[C@H]1N2C", "note": "[COCAINE]", "values": [{"measurement": "IC50", "result": 207, "unit": "nM"}]}
